{"sequences": {"note": "By UniProt entry, the sequences of proteins in these tests, tags left out.", "UniProt Q05940, whole entry": "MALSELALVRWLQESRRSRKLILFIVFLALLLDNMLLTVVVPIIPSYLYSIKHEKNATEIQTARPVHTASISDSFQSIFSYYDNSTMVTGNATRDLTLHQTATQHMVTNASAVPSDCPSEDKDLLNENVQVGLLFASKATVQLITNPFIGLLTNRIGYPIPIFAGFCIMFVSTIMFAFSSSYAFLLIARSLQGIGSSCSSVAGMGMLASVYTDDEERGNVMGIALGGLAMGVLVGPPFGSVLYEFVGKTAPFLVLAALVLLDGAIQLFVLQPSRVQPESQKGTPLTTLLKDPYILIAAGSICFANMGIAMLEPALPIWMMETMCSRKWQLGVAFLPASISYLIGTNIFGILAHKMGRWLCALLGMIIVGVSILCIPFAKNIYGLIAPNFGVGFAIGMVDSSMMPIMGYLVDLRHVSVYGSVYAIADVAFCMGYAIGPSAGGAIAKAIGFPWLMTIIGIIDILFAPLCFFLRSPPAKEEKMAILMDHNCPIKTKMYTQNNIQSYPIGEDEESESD", "UniProt Q01827, whole entry": "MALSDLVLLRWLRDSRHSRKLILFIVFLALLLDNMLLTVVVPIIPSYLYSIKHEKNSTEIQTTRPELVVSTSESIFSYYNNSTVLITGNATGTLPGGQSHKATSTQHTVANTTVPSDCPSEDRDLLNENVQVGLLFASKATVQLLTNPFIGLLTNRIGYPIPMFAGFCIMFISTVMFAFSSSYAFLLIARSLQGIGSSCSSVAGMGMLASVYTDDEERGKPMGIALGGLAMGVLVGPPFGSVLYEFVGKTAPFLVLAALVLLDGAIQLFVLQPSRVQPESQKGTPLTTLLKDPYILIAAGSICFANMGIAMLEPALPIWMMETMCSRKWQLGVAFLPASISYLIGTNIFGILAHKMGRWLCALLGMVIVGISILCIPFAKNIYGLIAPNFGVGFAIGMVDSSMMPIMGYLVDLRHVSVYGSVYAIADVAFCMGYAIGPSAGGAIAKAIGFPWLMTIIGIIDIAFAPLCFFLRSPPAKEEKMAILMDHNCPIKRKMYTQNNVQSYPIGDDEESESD"}, "source": "patent US12521377B2", "about": "“Uses of (+)-B-dihydrotetrabenazine in methods of treating movement disorder” (ADEPTIO PHARMACEUTICALS LIMITED, priority 2017, dated 2026)", "origin": "cited, not measured here", "key": {"VMAT2 [1]": {"molecular_target": "VMAT2 (Homo sapiens, UniProt Q05940)", "details": "cited from earlier work"}, "VMAT2 [2]": {"molecular_target": "VMAT2 (Rattus norvegicus, UniProt Q01827)", "details": "comparison among the eight dihydrotetrabenazine isomers; cited from earlier work"}}}
{"smiles": "COc1cc2c(cc1OC)[C@@H]1C[C@H](O)[C@@H](CC(C)C)CN1CC2", "note": "[(−)-α-dihydrotetrabenazine]", "values": [{"measurement": "activity as a VMAT2 binding agent", "setting": "VMAT2 [1]", "value": "essentially active"}]}
{"smiles": "COc1cc2c(cc1OC)[C@H]1C[C@H](O)[C@H](CC(C)C)CN1CC2", "note": "[(+)-β-dihydrotetrabenazine, (S,R,R)-3-isobutyl-9,10-dimethyloxy-1,3,4,5,7,11b-hexahydro-2H-pyrido[2,1-a]isoquinolin-2-ol]", "values": [{"measurement": "activity as a VMAT2 binding agent", "setting": "VMAT2 [1]", "value": "significantly less active than the (+)-α-dihydrotetrabenazine isomer"}]}
{"smiles": "COc1cc2c(cc1OC)[C@H]1C[C@@H](O)[C@H](CC(C)C)CN1CC2", "note": "[(+)-α-dihydrotetrabenazine]", "values": [{"measurement": "VMAT2 binding activity", "setting": "VMAT2 [2]", "value": "most active"}]}
